Test results from PubChem BioAssay AID1022 (Emory University Molecular Libraries Screening Center, 2008).
The entries are a selection whose mix differs from that of the whole data set. Calls of active or inactive are those of the source.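 Rule for the calls: active = compounds that cut the protein-peptide binding signal by more than 50% relative to plate controls in a single-dose test; inactive = the rest.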

The chains behind the UniProt entries cited, without tags or fusion partners.
UniProt Q07820, whole entry, looked up: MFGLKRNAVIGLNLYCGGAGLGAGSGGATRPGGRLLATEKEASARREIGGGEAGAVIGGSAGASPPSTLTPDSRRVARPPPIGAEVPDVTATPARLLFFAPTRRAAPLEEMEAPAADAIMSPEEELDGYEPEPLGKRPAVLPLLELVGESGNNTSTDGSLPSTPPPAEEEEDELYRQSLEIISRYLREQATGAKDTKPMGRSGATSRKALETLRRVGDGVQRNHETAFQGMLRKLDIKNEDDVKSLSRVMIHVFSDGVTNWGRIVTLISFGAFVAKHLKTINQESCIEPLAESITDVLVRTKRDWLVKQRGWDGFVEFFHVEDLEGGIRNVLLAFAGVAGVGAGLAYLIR

The compounds below were run against Induced myeloid leukemia cell differentiation protein Mcl-1 (Homo sapiens) (UniProt Q07820) (assay: disruptors of Mcl-1 and Noxa BH3 peptide – biochemical, TR-FRET, 1536-well, primary screen (AID 1022;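 note: His-tagged Mcl-1 with rhodamine Noxa BH3 peptide and terbium anti-His antibody; 0% = Mcl-1 plus Noxa peptide wells and 100% = peptide-only wells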)). Conditions: TR-FRET Mcl-1/Noxa peptide binding, 2 h; at 21.7 µM; hits give high values.

| SMILES | inhibition |
| --- | --- |
| O=P(Nc1nc2ccc(Cl)cc2s1)(c1ccccc1)c1ccccc1 | inactive: -97.2% |
| Nc1cc(N)c2nonc2c1[N+](=O)[O-] | inactive: 9.04% |
| CC(C)CC(=O)NC(Sc1ccc(Cl)cc1)C(Cl)(Cl)Cl (stereo not given) | inactive: -6.65% |
| Oc1ccccc1CNc1ccccn1 | inactive: -1.66% |
| O=C(NC(Sc1ccncn1)C(Cl)(Cl)Cl)c1ccccc1 (stereo not given) | inactive: 7.98% |
| Cc1c2non([O-])c-2c(C)[n+](=O)[n+]1[O-] | inactive: 31% |
| COc1ccccc1OP(=O)(Nc1ccc(C)cn1)Oc1ccccc1OC | inactive: -16.8% |
| Cc1ccc(OP(=O)(Nc2nccs2)Oc2ccc(C)cc2)cc1 | inactive: -0.29% |
| CN1CCCC(OC(=O)C(c2ccccc2)c2ccccc2)C1 (stereo not given) | inactive: 21.3% |
| Clc1ccc(Cl)c(NC2=NCC(CBr)S2)c1 (stereo not given) | inactive: 12.9% |
| NC(=O)c1cc([N+](=O)[O-])cc([N+](=O)[O-])c1N | inactive: 14.5% |
| Cc1ccc(N/C(=N/P(=O)(N2CCOCC2)N2CCOCC2)N2CCOCC2)cc1 | inactive: 5.18% |
| CC(C)=N/N=C(\N)N[N+](=O)[O-] | inactive: -18.6% |
| CN(C)C(=O)OCCc1n(C)cc[n+]1C | inactive: 1.08% |
| CC1CCN(C(=O)Oc2c(Cl)cc(Cl)c3cccnc23)CC1 | inactive: -2.01% |
| Nc1ccc([As](=O)(O)c2ccc(N)cc2)cc1 | inactive: 3.34% |
| C[N+]1=C2C=CC=CC=C2SC12C([N+](=O)[O-])=CC([N+](=O)[O-])=C[C-]2[N+](=O)[O-] (stereo not given) | active: 55.4% |
| CCN(/C(=N/P(=O)(N1CCOCC1)N1CCOCC1)N1CCOCC1)c1ccc(OC)cc1 | inactive: 3.09% |
| CC(=O)N1C2C3N(C(C)=O)C1C1N(C(C)=O)C(C(N1C(C)=O)N3C(C)=O)N2C(C)=O | inactive: -10.1% |
| O=[N+]([O-])c1cccc2n[nH]nc12 | inactive: 25% |

| SMILES | inhibition |
| --- | --- |
| Cc1ccc(NP(=O)(Oc2ccccc2)Oc2ccccc2)nc1 | inactive: 0.24% |
| O=[N+]([O-])c1cc([N+](=O)[O-])c(CCNc2ccccc2)c([N+](=O)[O-])c1 | inactive: 19.1% |
| CCc1nc2c(n1)c1c(non1O)c1c2no[n+]1[O-] | inactive: 4.38% |
| COc1ccc(C2=NCC(CBr)S2)cc1 (stereo not given) | inactive: 8.58% |
| O=[N+]([O-])c1cccc(NC2=NCC(CBr)S2)c1 (stereo not given) | inactive: 5.05% |
| O=C(O)CNc1ccc([As](=O)(O)O)cc1 | inactive: 28.2% |
| CC(C)(C)C(=O)NC(Sc1ccncn1)C(Cl)(Cl)Cl (stereo not given) | inactive: 3.61% |
| O=[N+]([O-])c1ncn(CCn2ncnc2[N+](=O)[O-])n1 | inactive: 6.95% |
| O=C(Nc1cc([As](=O)(O)O)ccc1O)c1ccccc1 | inactive: 10.8% |
| C(Cc1nn[nH]n1)Cc1nn[nH]n1 | inactive: -25% |
| Nc1ccc([As](=O)(O)c2ccc([N+](=O)[O-])cc2)cc1 | inactive: -13% |
| O=C(OC1CN2CCC1CC2)c1cccc(Cl)c1 (stereo not given) | inactive: 11.4% |
| CC(=O)NC(SC(=S)N(C)C)C(Cl)(Cl)Cl (stereo not given) | inactive: 0.6% |
| O=[N+]([O-])c1ncn(CCn2cnc([N+](=O)[O-])n2)n1 | inactive: -12.4% |
| O=[As](O)(c1ccccc1)c1ccc(O)cc1 | inactive: -2.16% |
| O=P(Nc1nc2ccccc2s1)(c1ccccc1)c1ccccc1 | inactive: 8.94% |
| C[C@H]1OP(=O)(Oc2ccccc2)[C@H](O)[C@H](O)[C@H]1N=[N+]=[N-] (stereo not given in full) | inactive: 8.93% |
| O=P(Nc1ccccn1)(c1ccc(Br)cc1)c1ccc(Br)cc1 | inactive: 18.4% |
| c1nnnn1CCn1cnnn1 | inactive: -3.05% |
| O=P(Nc1nccs1)(c1ccccc1)c1ccccc1 | inactive: 0.2% |

| SMILES | inhibition |
| --- | --- |
| CC(C)C(=O)NC(Sc1ccccc1)C(Cl)(Cl)Cl (stereo not given) | inactive: 7.57% |
| CC(=O)Nc1ccc([As](=O)(O)O)c(O)c1 | inactive: -0.24% |
| CC(=O)Nc1ccc(Oc2c([N+](=O)[O-])cc([N+](=O)[O-])cc2[N+](=O)[O-])cc1 | inactive: 17.2% |
| C[C@H]1OP(=O)(Oc2ccccc2)C[C@@H]2O[C@@H]21 (stereo not given in full) | inactive: -7.8% |
| C[C@@H]1C=CCP(=O)(Oc2ccccc2)O1 (stereo not given in full) | inactive: -1.18% |
| CC(C)(C)C(=O)NC(Sc1ccccc1)C(Cl)(Cl)Cl (stereo not given) | inactive: 8.12% |
| O=P1(Nc2nc3ccc(Cl)cc3s2)COc2ccccc2O1 (stereo not given) | inactive: 2.85% |
| CCOc1ccc(C2=NCC(CBr)S2)cc1 (stereo not given) | inactive: 25.8% |
| Cc1ccccc1OP(=O)(Nc1ccccn1)Oc1ccccc1C | inactive: -4.86% |
| O=c1c2cc([N+](=O)[O-])ccc2[nH]c2c([N+](=O)[O-])cc([N+](=O)[O-])cc12 | active: 55% |
| CN(C)C(=O)Oc1noc2ccccc12 | inactive: -8.05% |
| COC(=O)c1cc2c(s1)N=C(c1ccccc1)N(C)P2(=O)N1CCOCC1 (stereo not given) | inactive: 8.73% |
| CC(=O)NC(SC(=S)N(CC(C)C)CC(C)C)C(Cl)(Cl)Cl (stereo not given) | inactive: 37.2% |
| Cc1ccc(OP(=O)(Nc2ccccn2)Oc2ccc(C)cc2)cc1 | inactive: -7.37% |
| CCC(=O)N1C2C3N(C(=O)CC)C1C1N(C(=O)CC)C(C(N1C(=O)CC)N3C(=O)CC)N2C(=O)CC | inactive: -21.8% |
| O=C(NC1CCS(=O)(=O)C1)NP(=S)(Oc1ccccc1)Oc1ccccc1 (stereo not given) | active: 69% |
| CCNC(=S)/N=C(\N)N[N+](=O)[O-] | inactive: -11% |
| c1ccc(-c2nn[nH]n2)c(-c2nn[nH]n2)c1 | inactive: 25.4% |
| Cc1ccc(NP(=O)(Oc2cccc(C)c2)Oc2cccc(C)c2)nc1 | inactive: -3.11% |
| CCOC(=O)NC(Sc1ccccc1)C(Cl)(Cl)Cl (stereo not given) | inactive: -6.46% |
